The values below come from patent US6126918A, “Screening assays to identify therapeutic agents for amyloidosis” (Imperial College Innovations Limited, priority 1993, dated 2000).

The data set deals with amyloid fibrils of AA, AL and apoAI type. Description: Proteinase digestion of ex vivo amyloid fibrils (AA, AL, apoAI) in vitro. In kind it is biochemical, human. Conditions: protein added to incubation mixtures, 37° C. The protocol:
Digestion was monitored by analysis of the incubation mixtures in reduced SDS-PAGE and also by release of trichloroacetic acid (TCA)-soluble radioactivity when the fibrils had been oxidatively labelled with ^125 I. Incubation of such labelled fibrils with cultured monocyte-derived macrophages also led to digestion.
This inhibition was dose and time-dependent and was not observed when other proteins, C-reactive protein (CRP) and human serum albumin, were added as controls in place of SAP.

“albumin: human serum albumin, control protein”: the “Effect on fibril digestion by proteinases” value was “both it and the fibrils were completely digested”.
